Data: patent publication US10112937B2, “P2X7 modulators and methods of use” (Janssen Pharmaceutica NV, priority 2013, dated 2018)

Chains of the proteins cited; added tags and fusions are not shown. Lines headed by an entry give the natural chain unless they say otherwise; changes in a name come on top.
UniProt Q64663: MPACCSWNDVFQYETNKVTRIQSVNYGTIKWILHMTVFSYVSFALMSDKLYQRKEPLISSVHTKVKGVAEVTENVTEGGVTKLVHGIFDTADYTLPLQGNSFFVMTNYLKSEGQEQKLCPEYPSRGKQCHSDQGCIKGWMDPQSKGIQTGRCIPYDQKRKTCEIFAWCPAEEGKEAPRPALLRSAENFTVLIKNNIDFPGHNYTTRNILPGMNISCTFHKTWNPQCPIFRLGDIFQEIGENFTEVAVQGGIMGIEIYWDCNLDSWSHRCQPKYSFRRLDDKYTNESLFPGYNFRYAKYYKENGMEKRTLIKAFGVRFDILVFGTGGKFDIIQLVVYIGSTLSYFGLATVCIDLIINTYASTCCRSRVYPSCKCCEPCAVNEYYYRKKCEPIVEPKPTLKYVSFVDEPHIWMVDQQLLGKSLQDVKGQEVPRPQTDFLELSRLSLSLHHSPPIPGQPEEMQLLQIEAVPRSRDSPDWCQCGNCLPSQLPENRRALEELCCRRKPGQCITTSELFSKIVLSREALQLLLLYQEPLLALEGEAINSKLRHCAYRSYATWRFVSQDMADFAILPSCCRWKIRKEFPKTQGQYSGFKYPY
UniProt Q99572: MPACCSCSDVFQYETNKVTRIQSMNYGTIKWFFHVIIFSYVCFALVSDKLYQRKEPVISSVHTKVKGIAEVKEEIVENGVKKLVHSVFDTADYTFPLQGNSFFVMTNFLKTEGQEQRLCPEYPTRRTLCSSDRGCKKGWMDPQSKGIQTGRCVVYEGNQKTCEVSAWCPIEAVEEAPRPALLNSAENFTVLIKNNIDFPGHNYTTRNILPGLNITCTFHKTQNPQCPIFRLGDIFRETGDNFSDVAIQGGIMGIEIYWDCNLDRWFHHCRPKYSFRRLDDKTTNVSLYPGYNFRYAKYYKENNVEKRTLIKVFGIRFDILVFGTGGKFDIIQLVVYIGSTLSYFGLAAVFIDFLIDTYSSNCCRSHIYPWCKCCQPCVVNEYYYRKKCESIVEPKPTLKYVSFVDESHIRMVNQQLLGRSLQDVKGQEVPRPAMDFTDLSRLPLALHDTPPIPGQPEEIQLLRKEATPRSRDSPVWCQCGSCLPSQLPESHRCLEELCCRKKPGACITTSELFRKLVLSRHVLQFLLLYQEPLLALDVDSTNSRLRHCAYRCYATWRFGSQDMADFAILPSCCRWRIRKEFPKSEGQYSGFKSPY

Columns and labels:
[1] = molecular target: T1, rat P2X7 (Rattus norvegicus (Rat), UniProt Q64663); assay: Radioligand binding ([3H]A-804598), rat P2X7-1321N1 cell membranes; conditions: rat P2X7-1321N1 membranes, tritiated A-804598
[2] = molecular target: T2, human P2X7 (Homo sapiens (Human), UniProt Q99572); assay: Ca2+ flux (FLIPR) in 1321N1 cells expressing recombinant human P2X7; assay type: cell-based; conditions: 1321N1 cells, recombinant human P2X7, 250 μM BzATP;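 note: cells loaded with Calcium-4 dye, preincubated with test compound for 30 min, fluorescence change read 180 s after agonist addition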
[3] = molecular target: T2, human P2X7; assay: Radioligand binding ([3H]A-804598), human P2X7-1321N1 cell membranes; conditions: human P2X7-1321N1 membranes, tritiated A-804598
[4] = molecular target: T1, rat P2X7; assay: Ca2+ flux (FLIPR) in 1321N1 cells expressing recombinant rat P2X7; assay type: cell-based; conditions: recombinant rat P2X7, 250 μM BzATP;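 note: Calcium-4 dye fluorescence change read 180 s after agonist addition, with cells preincubated 30 min with compound and dye in 96-well plates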
[5] = molecular target: T2, human P2X7; assay: P2X7 antagonism in human PBMCs (IL-1β release after LPS + Bz-ATP, ELISA); assay type: cell-based; conditions: test compound 10 μM
Procedure: The in vitro affinity of the compounds of the invention for the rat and human P2X7 receptor was determined using a human peripheral blood mononuclear cells (PBMCs), a human whole blood assay, a Ca^2+ flux and radioligand binding assay in recombinant human P2X7 cells and recombinant rat P2X7 cells. In Tables 2 and 3, when the data cell has been left blank, it is intended to mean that the compound was not tested in that assay. The data represented in Tables 2 and 3 may represent a value from a single determination or when the experiment was run more than once, the data represent averages from between 2-12 runs.
Human blood was collected using a blood donor program. […] Cells were incubated for an additional 1.5 hours. […] Data are analyzed and graphed on Graphpad Prism 5. […] The IC50 for each compound is then uploaded into 3DX.

O=C(c1cccc(C(F)(F)F)c1Cl)N1CCc2c(nnn2-c2ncccn2)C1 [Example 65, 5-{[2-Chloro-3-(trifluoromethyl)phenyl]carbonyl}-1-pyrimidin-2-yl-4,5,6,7-tetrahydro-1H-[1,2,3]triazolo[4,5-c]pyridine]
Ki [1]: 2.8 nM

O=C(c1cccc(C(F)(F)F)c1Cl)N1CCc2c(nnn2-c2cnccn2)C1 [Example 91, 5-{[2-Chloro-3-(trifluoromethyl)phenyl]carbonyl}-1-pyrazin-2-yl-4,5,6,7-tetrahydro-1H-[1,2,3]triazolo[4,5-c]pyridine]
IC50 [2]: 2.7 nM
Ki [1]: 6.8 nM

Cc1c(C(=O)N2CCc3c(nnn3-c3ncccn3)[C@H]2C)cccc1C(F)(F)F (single isomer, unassigned) [Example 188, (R*)-(4-methyl-1-(pyrimidin-2-yl)-6,7-dihydro-1H-[1,2,3]triazolo[4,5-c]pyridin-5(4H)-yl)(2-methyl-3-(trifluoromethyl)phenyl)methanone]
Ki [1]: 2.5 nM

Cc1cc(-n2nnc3c2CCN(C(=O)c2cccc(C(F)(F)F)c2Cl)C3C)ncc1F (stereo not drawn) [Example 381, (2-chloro-3-(trifluoromethyl)phenyl)(1-(5-fluoro-4-methylpyridin-2-yl)-4-methyl-6,7-dihydro-1H-[1,2,3]triazolo[4,5-c]pyridin-5(4H)-yl)methanone]
IC50 [2]: 38.5 nM
Ki [3]: 120 nM

O=C(c1cccc(C(F)(F)F)c1Cl)N1CCc2c(nnn2-c2ncc(F)cn2)C1 [Example 64, 5-{[2-Chloro-3-(trifluoromethyl)phenyl]carbonyl}-1-(5-fluoropyrimidin-2-yl)-4,5,6,7-tetrahydro-1H-[1,2,3]triazolo[4,5-c]pyridine]
IC50 [4]: 2880 nM
Ki [1]: 21.6 nM

Cc1ccnc(-n2nnc3c2CCN(C(=O)c2ccnc(C(F)(F)F)c2Cl)C3C)c1 (stereo not drawn) [Example 358, (3-chloro-2-(trifluoromethyl)pyridin-4-yl)(4-methyl-1-(4-methylpyridin-2-yl)-6,7-dihydro-1H-[1,2,3]triazolo[4,5-c]pyridin-5(4H)-yl)methanone]
Ki [3]: 38 nM

Cc1ccnc(-n2nnc3c2CCN(C(=O)c2ccnc(C(F)(F)F)c2F)C3C)c1 (stereo not drawn) [Example 355, (3-fluoro-2-(trifluoromethyl)pyridin-4-yl)(4-methyl-1-(4-methylpyridin-2-yl)-6,7-dihydro-1H-[1,2,3]triazolo[4,5-c]pyridin-5(4H)-yl)methanone]
IC50 [2]: 88.7 nM
Ki [3]: 60.3 nM

Cc1cccc(-n2nnc3c2CCN(C(=O)c2cccc(Cl)c2Cl)[C@H]3C)n1 (single isomer, unassigned) [Example 390, (S*)-(2,3-dichlorophenyl)(4-methyl-1-(6-methylpyridin-2-yl)-6,7-dihydro-1H-[1,2,3]triazolo[4,5-c]pyridin-5(4H)-yl)methanone]
IC50 [2]: 10.6 nM
IC50 [4]: 211 nM
Ki [3]: 13.8 nM

Cc1ccnc(-n2nnc3c2CCN(C(=O)c2cccc(Cl)c2Cl)[C@H]3C)c1 (single isomer, unassigned) [Example 395, (S*)-(2,3-dichlorophenyl)(4-methyl-1-(4-methylpyridin-2-yl)-6,7-dihydro-1H-[1,2,3]triazolo[4,5-c]pyridin-5(4H)-yl)methanone]
PBMC 10 μM (% control) [5]: 14.7 % control
